Measured values: patent US20260193179A9 (priority 2018, published 2026)
Structures can show the parent of a compound that is named as a salt.

By UniProt entry, the sequences of proteins in these tests, tags left out. Residues count along the entry.
UniProt O00187, 445-686: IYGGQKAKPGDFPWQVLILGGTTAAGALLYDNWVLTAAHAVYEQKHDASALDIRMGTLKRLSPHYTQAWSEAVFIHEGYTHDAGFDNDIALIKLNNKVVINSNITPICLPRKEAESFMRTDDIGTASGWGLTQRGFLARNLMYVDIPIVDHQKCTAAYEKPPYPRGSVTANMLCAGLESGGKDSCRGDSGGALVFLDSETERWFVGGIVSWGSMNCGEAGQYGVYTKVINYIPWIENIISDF
UniProt O00187, 298-444: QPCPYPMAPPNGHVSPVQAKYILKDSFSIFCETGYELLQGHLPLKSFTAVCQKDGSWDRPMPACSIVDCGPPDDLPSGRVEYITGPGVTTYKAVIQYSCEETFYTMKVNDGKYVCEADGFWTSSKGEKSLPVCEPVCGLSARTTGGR

Legend:
MASP-2 (CCP1-CCP2-SP) [1] = biological target: MASP-2 (CCP1-CCP2-SP) (Homo sapiens, UniProt O00187); experiment: Enzymatic Assay for MASP-2 (fluorogenic substrate); assay type: biochemical
MASP-2 (CCP1-CCP2-SP) [2] = experiment: Enzymatic Assay for MASP-2 (fluorogenic substrate); assay type: biochemical, human; conditions: selectivity for MASP-2 inhibition versus thrombin

**Q.** Which Ki (MASP-2 (CCP1-CCP2-SP) [1]) does the source give for `Cc1nc(N)ccc1CNC(=O)C(C)NC(=O)[C@H]1C[C@H](c2cccc(-c3ccccc3)c2)CN1` (stereo in doubt) [compound 1359, (2R,4R)-4-([1,1′-Biphenyl]-3-yl)-N—((S)-1-(((6-amino-2-methylpyridin-3-yl)methyl)amino)-1-oxopropan-2-yl)pyrrolidine-2-carboxamide Di-trifluoroacetate salt] here?
**A.** 500 to 2500 nM

**Q.** And the “MASP-2 vs. thrombin selectivity” value (MASP-2 (CCP1-CCP2-SP) [2])?
**A.** ** (≥5.0 to <25-fold)
